# Assay results reported in PMC11219766 (Nature Communications, 2024).
# Protein sequences, listed by entry. Tags and fused reporters are not part of them. Lines headed by an entry give the natural chain unless they say otherwise; changes in a name come on top.
# UniProt Q99828: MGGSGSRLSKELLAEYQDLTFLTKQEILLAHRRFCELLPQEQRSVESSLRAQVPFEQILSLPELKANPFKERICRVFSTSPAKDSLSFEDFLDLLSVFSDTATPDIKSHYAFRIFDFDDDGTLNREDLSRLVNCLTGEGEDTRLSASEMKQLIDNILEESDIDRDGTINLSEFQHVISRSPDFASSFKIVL
# pIC50: −log10 of the molar value. Values joined by “and” are separate entries in the source; they are usually repeats but may differ in a detail not shown here. Equal entries are not always repeated.
# Columns and labels:
# [1] = system: TRAIL-R1/D5 expression; conditions: three CIB1 depletion-sensitive cell lines
# [2] = system: γH2AX
# [3] = target: CIB1 (Homo sapiens, UniProt Q99828); test: biochemical
# Method: (§1) Cell death was assessed by trypan blue exclusion. […] Source data are provided as a Source Data file.
# [4] = system: MDA-MB-468 cells
# Method: as §1
# [5] = system: MDA-MB-231 cells
# Method: as §1
# [6] = system: MDA-MB-461 cells; conditions: for Initial screen in CIB1 depletion sensitive MDA-MB-461 cells: cell death measured at 24 h at 30 uM compound, column head prints no unit, percentage of dead cells per method
# [7] = system: MDA453 cells; conditions: MDA-453 cells, 5380 30 µM, trypan blue cell count (adherent + floating), independent experiments (Figure 3D source data)
# Method: as §1
# [8] = system: MDA-MB-436 cells; conditions: MDA-436 cells, 5380 30 µM, trypan blue cell count (adherent + floating), independent experiments (Figure 3D source data)
# Method: as §1
# [9] = system: BT549 cells; conditions: MDA-549 cells (so in the source), trypan blue cell count (adherent + floating) (Figure 3D source data)
# Method: as §1
structure (smiles),measurement,setting,value
"COc1cccc(OCCCn2cc(C=C3C(=O)NC(=O)N(Cc4ccco4)C3=O)c3ccccc32)c1 [UNC10245380A, COc1cccc(OCCCn2cc(C=C3C(=O)NC(=O)N(Cc4ccco4)C3=O)c3ccccc23)c1]",death receptor TRAIL-R1/D5 expression,[1],upregulates
same,γH2AX (Western blot),[2],upregulates γH2AX
same,pIC50,[3],5.10
same,MDA-MB-468 % cell death (±SD; n=3),[4]; 24 h at 30 uM compound,85.43 ± 1.4%
same,cell killing activity,[4]; CIB1-depletion-sensitive MDA-MB-468 cell line,significant cell killing activity
same,dose-dependent cell death of MDA-468 TNBC cells,[4]; over 48 h,> 90%
same,MDA-MB-231 % cell death (±SD; n=3),[5]; 24 h at 30 uM compound,5.8 ± 1.4%
same,cell killing activity,[5]; CIB1-depletion-insensitive MDA-MB-231 cell line,no activity
same,cell killing activity,[6]; CIB1-depletion-sensitive MDA-MB-461 cell line,significant cell killing activity
same,Initial screen in CIB1 depletion sensitive MDA-MB-461 cells,[6],82%
"Cc1noc(C)c1COc1cccc(C(=O)Nc2cccc(S(=O)(=O)Nc3cccc(C(F)(F)F)c3)c2)c1 [UNC10245406A, Cc1noc(C)c1COc1cccc(c1)C(=O)Nc1cccc(c1)S(=O)(=O)Nc1cccc(c1)C(F)(F)F]",Initial screen in CIB1 depletion sensitive MDA-MB-461 cells,[6],12%
"Cc1cc(NC(=O)CSc2nc3ccccc3c(=O)n2CC2CCC(C(=O)NCc3ccccc3Cl)CC2)n[nH]1 (stereo not drawn) [UNC10245433A, Cc1cc(NC(=O)CSc2nc3ccccc3c(=O)n2CC2CCC(CC2)C(=O)NCc2ccccc2Cl)n[nH]1]",Initial screen in CIB1 depletion sensitive MDA-MB-461 cells,[6],5.2%
Cc1cc(NC(=O)CSC2=Nc3ccccc3C(=O)C2CC2CCC(C(=O)NCc3ccccc3Cl)CC2)n[nH]1 (stereo not drawn) [compound 5380],% Cell Death,[7],9.006% and 9.952%
same,% Cell Death,"[4]; MDA-468 cells, 5380 30 µM as printed in the line, trypan blue cell count (adherent + floating), independent experiments (Figure 3D source data)",55.8405% and 96.2818% and 86.0817%
same,% Death,[8],46.7681% and 52.6066%
same,% Death,[9]; 5380 15 µM as printed in the line,44.7433%
same,% Cell Death,[9]; 5380 30 µM,32.6923%
same,% Cell Death,"[5]; MDA-231 cells, 5380 30 µM, trypan blue cell count (adherent + floating), independent experiments (Figure 3D source data)",11.054% and 7.197% and 6.887%
